{"sequences": {"note": "Amino acid sequences for entries named in this document (tags omitted).", "UniProt Q6RI86, whole entry": "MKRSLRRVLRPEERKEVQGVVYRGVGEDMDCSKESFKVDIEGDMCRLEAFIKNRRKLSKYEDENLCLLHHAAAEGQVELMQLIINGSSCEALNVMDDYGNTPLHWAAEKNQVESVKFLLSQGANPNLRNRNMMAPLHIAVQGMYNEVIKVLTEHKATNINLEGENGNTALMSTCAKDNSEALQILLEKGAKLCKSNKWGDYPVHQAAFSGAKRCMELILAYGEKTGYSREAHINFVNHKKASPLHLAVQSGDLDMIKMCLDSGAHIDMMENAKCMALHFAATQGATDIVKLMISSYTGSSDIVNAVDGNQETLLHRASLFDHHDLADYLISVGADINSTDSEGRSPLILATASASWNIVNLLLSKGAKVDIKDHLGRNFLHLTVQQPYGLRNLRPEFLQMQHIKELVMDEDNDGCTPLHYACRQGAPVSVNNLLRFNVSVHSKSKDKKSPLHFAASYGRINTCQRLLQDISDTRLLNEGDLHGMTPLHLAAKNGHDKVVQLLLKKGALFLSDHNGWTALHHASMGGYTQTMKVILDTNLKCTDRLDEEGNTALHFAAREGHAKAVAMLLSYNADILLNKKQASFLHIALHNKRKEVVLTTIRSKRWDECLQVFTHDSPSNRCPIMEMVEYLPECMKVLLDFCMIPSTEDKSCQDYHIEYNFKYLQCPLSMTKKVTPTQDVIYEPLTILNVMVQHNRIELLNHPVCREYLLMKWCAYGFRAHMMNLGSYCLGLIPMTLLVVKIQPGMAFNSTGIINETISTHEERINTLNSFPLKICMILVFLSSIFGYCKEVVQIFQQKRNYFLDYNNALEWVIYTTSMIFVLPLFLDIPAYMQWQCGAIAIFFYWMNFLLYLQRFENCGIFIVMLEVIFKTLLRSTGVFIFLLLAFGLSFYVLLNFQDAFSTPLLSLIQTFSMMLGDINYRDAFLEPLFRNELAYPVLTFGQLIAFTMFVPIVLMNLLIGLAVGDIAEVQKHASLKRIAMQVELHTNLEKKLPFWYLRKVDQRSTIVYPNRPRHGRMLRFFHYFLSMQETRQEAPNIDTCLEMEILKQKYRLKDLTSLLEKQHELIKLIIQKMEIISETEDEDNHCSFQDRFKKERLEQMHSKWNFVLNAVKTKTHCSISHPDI"}, "source": "paper PMC4745898", "about": "(Science signaling, 2015)", "molecular_target": "TRPA1 (Rattus norvegicus, UniProt Q6RI86)", "format": "cell-based"}
{"smiles": "C=CCN=C=S", "note": "[AITC]", "values": [{"measurement": "EC50", "result": 4.4, "unit": "µM"}]}
